From patent US8426138B2 (priority 2006, dated 2013)

The chains behind the UniProt entries cited, without tags or fusion partners.
UniProt P37288, whole entry: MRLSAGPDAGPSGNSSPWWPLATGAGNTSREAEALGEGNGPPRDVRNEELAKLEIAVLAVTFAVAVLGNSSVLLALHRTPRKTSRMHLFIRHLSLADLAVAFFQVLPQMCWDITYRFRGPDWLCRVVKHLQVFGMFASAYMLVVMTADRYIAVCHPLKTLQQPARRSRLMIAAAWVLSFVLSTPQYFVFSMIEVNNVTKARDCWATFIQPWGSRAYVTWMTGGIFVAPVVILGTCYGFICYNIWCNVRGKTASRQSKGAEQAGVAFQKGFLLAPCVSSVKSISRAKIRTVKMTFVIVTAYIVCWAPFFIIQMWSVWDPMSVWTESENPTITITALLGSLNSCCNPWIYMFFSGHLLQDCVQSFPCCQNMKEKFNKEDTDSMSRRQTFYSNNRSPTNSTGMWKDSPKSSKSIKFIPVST

Molecular target: Arginine-vasopressin receptor 1a (AVPR1a) (Homo sapiens, UniProt P37288)
Conditions: 2 hr
Description: Plasmids. […] Other FYVE domains were generated similarly by RT-PCR^˜. […] To generate a β2AR-eYFP-α construct, the eYFP-α fragment was subcloned into the β2AR-ωplasmid using Xhol and HindIII. The Angiotensin receptor 1a was derived by RT-PCR from C57/BI6 mouse brain RNA using primers for the entire coding sequence, minus the stop codon; it was cloned N-terminally to eYFP-α or ω with MfeI and XhoI. […] Finally, to generate fusion proteins with β-arrestin, the full coding sequence of human β-arrestin B2 was PCR amplified from a cDNA clone and inserted into the Mfel-XhoI sites of the ω and eYFP-α vectors.
Assays and cell preparation. […] LysoTracker Red and Texas Red-labeled transferrin were purchased from Molecular Probes. The Kinase/Phosphatase Inhibitor Library was purchased from BIOMOL, and the Mechanistic and Diversity Compound Libraries were provided by the Developmental Therapeutics Program of the National Cancer Institute. Cells were plated and grown to confluency in 96-well white tissue culture dishes (Corning Costar), in 100 μl of growth media. Dose-response curves were generated by adding the respective ligand to the media and incubating for 2 h at 37° C. […]

SMILES: NC(=O)CC[C@@H]1NC(=O)[C@H](Cc2ccccc2)NC(=O)[C@H](Cc2ccc(O)cc2)NC(=O)[C@@H](N)CSSC[C@@H](C(=O)N2CCC[C@H]2C(=O)N[C@@H](CCCN=C(N)N)C(=O)NCC(N)=O)NC(=O)[C@H](CC(N)=O)NC1=O [vasopressin, [Arg^8]-vasopressin]
- induction, arrestin assay: approximately 9 fold
